The IC50 is the concentration needed to halve the response being measured. Lower therefore signals higher potency.

Chains of the proteins cited; added tags and fusions are not shown. Lines headed by an entry give the natural chain unless they say otherwise; changes in a name come on top.
UniProt Q12809: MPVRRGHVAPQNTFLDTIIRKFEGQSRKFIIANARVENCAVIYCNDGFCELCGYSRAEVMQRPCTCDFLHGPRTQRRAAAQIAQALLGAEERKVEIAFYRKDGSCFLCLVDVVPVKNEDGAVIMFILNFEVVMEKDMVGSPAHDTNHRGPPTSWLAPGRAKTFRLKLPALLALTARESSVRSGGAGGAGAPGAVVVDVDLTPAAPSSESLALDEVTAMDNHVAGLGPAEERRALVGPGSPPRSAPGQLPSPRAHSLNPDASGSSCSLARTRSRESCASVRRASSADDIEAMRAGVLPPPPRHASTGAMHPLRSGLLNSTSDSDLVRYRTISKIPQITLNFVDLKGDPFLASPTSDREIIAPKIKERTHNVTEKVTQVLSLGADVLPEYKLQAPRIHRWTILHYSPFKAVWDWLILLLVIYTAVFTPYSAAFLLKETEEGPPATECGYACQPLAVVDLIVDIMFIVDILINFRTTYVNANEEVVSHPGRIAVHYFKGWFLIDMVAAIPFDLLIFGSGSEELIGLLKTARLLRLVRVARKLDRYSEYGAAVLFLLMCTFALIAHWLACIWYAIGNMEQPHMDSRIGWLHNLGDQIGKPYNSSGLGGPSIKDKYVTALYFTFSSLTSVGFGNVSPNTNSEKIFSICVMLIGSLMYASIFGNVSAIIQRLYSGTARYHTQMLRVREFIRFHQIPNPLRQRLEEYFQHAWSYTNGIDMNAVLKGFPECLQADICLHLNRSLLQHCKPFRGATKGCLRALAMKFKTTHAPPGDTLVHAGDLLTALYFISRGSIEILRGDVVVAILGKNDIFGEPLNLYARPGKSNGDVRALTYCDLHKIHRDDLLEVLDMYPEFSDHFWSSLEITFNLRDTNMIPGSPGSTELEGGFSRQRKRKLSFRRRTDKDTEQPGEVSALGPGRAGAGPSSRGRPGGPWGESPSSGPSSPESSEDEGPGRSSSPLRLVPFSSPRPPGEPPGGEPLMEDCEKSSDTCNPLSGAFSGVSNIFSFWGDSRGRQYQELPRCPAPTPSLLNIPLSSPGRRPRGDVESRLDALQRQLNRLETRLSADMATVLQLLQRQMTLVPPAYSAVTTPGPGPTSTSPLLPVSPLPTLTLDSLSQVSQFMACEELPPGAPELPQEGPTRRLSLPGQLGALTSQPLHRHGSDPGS

The experiment has as its target Voltage-gated inwardly rectifying potassium channel KCNH2 (Homo sapiens, UniProt Q12809).

Consider `CC(C)COCC(CN(Cc1ccccc1)c1ccccc1)N1CCCC1` (configuration not stated) [BEPRIDIL], for which it took 430 nM to reach half-maximal inhibition (IC50).
As for `O[C@H](c1cc(C(F)(F)F)nc2c(C(F)(F)F)cccc12)[C@@H]1CCCCN1` [MEFLOQUINE], 2600 nM corresponded to half-maximal inhibition (IC50).
